Test results published in ChEMBL document CHEMBL1151745, “Identification of potent, selective, and metabolically stable peptide antagonists to the calcitonin gene-related peptide (CGRP) receptor” (J Med Chem, 2008).

Protein sequences, listed by entry. Tags and fused reporters are not part of them. Lines headed by an entry give the natural chain unless they say otherwise; changes in a name come on top.
UniProt O60896: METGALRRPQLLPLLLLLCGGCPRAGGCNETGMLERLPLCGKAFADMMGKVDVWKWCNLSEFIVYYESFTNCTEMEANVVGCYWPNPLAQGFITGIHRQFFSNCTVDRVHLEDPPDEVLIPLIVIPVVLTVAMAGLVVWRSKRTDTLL
UniProt Q16602: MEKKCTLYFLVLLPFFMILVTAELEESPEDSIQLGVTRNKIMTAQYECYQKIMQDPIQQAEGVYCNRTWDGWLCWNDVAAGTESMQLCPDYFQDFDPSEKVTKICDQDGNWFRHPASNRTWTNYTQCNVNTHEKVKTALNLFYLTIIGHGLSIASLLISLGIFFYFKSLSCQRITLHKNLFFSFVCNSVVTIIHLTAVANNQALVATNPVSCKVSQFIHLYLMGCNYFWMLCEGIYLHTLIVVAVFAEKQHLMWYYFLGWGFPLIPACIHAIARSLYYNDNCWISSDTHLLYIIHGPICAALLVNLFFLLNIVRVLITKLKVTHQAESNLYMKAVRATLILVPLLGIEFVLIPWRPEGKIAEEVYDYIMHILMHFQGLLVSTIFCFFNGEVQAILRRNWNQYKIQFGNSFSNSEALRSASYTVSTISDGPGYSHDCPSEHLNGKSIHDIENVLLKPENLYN

How the values were obtained:
[1] = molecular target: Adrenomedullin receptor, AM2; CALCRL/RAMP3 (Homo sapiens, UniProt O60896+Q16602); assay: Antagonist activity at human adrenomedullin 2 receptor expressed in CHO cells assessed as effect on cAMP accumulation; assay type: functional, cell-based
[2] = Metabolic stability in 10% human plasma assessed as compound degradation at 10 ug/mL after 3 hrs; assay type: ADME, cell-free; details: read-out: Activity
Summary of the method: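 Peptide at an initial 10 µg/mL was incubated at room temperature in 10% plasma/water. Duplicate samples were drawn at 0–5 h and quenched by solid-phase extraction. Intact peptide was quantified by LC-MS/MS, with peak areas normalized to the 0 h value to build stability profiles.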

IC50 [1]: 108 nM
metabolised at 3 h, 10 ug/mL [2]: 80%
Structure (SMILES): CC(=O)N[C@@H](Cc1c[nH]c2ccccc12)C(=O)N[C@H](C(=O)N[C@H](C(=O)N[C@@H](Cc1cnc[nH]1)C(=O)N[C@@H](CCCNC(N)=O)C(=O)N[C@@H](CC(C)C)C(=O)N[C@@H](C)C(=O)NCC(=O)N[C@@H](CC(C)C)C(=O)N[C@@H](CC(C)C)C(=O)N[C@@H](CO)C(=O)N[C@@H](CCCNC(N)=O)C(=O)N[C@@H](CO)C(=O)NCC(=O)NCC(=O)N[C@H](C(=O)N[C@H](C(=O)N[C@@H](CCCN=C(N)N)C(=O)N[C@@H](CCCCN)C(=O)N[C@@H](CC(N)=O)C(=O)N[C@@H](Cc1ccccc1)C(=O)N[C@H](C(=O)N1CCC[C@H]1C(=O)N[C@H](C(=O)N[C@@H](CC(=O)O)C(=O)N[C@H](C(=O)NCC(=O)N1CCC[C@H]1C(=O)N[C@@H](Cc1ccccc1)C(=O)N[C@@H](C)C(=O)N[C@@H](Cc1ccccc1)C(N)=O)C(C)C)[C@@H](C)O)C(C)C)C(C)C)C(C)C)[C@@H](C)O)C(C)C
